Patent US10597391B2, “Urea-containing isoxazole derivatives as FXR agonists and methods of use thereof” (Enanta Pharmaceuticals, Inc., priority 2016, dated 2020)

Amino acid sequences for entries named in this document (tags omitted).
UniProt Q96RI1, whole entry: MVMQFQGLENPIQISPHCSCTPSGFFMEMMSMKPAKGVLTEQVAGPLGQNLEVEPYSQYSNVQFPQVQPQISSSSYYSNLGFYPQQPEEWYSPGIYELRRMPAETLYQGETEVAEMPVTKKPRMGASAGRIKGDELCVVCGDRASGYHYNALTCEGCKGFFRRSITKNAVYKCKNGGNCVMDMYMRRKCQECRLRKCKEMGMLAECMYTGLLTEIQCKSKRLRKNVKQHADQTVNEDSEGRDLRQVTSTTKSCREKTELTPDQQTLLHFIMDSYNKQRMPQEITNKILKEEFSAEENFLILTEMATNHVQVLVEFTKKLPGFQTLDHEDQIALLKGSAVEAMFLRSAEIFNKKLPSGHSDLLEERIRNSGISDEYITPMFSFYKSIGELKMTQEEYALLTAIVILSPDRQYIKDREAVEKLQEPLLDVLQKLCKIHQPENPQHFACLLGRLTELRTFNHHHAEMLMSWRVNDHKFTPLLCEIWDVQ

Biological target: human FXR (NR1H4) (Homo sapiens, UniProt Q96RI1)
Assay: Human FXR (NR1H4) Assay: Gal4 promoter driven luciferase reporter transactivation in CHO cells (Indigo Bioscience kit IB00601)
Format: cell-based
Conditions: for Efficacy (%): efficacy normalized to CDCA set as 100%; for EC50: potency range, Human FXR (NR1H4) reporter assay in CHO cells

COC(=O)c1ccc(NC(=O)N2C3CCC2CC(OCc2c(-c4c(Cl)cccc4Cl)noc2C2CC2)C3)cc1-c1cccnc1 (stereo not drawn)
Efficacy (%): 87% | EC50: < 10 nM

O=C(O)c1ccc(NC(=O)N2C3CCC2CC(OCc2c(-c4c(Cl)cccc4Cl)noc2C2CC2)C3)cc1-c1cccnc1 (stereo not drawn)
Efficacy (%): 36% | EC50: 10 to 100 nM

COC(=O)c1ccc(NC(=O)N2C3CCC2CC(OCc2c(-c4c(Cl)cccc4Cl)noc2C2CC2)C3)c(F)c1 (stereo not drawn)
Efficacy (%): 165% | EC50: 10 to 100 nM
